{
  "source": "paper PMC10983004",
  "about": "(Journal of Medicinal Chemistry, 2024)",
  "key": {"TET1CD [1]": {"target": "T1, TET1CD (Homo sapiens, UniProt Q8NFU7)", "T1 sequence (Q8NFU7 1418-2136)": "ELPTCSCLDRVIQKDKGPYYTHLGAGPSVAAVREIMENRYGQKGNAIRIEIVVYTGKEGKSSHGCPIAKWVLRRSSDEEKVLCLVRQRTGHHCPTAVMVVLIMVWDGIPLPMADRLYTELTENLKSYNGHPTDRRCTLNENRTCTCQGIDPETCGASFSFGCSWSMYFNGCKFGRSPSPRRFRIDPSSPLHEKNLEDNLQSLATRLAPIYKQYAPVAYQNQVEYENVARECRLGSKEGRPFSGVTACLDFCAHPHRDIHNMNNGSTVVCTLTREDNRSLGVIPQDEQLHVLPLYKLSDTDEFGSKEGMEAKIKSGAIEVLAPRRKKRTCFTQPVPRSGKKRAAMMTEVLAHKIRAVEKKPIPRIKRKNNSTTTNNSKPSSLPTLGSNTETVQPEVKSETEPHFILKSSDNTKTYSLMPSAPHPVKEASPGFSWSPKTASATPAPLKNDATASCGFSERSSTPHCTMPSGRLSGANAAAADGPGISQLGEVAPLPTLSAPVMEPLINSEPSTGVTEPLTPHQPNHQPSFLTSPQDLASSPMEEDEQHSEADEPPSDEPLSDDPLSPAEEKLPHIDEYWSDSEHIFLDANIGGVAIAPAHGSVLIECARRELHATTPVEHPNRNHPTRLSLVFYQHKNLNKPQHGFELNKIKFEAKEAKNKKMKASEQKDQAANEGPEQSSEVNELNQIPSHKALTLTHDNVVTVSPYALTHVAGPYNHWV"}, "TET1CD [2]": {"target": "T1, TET1CD", "assay_type": "biochemical", "set-up": "TET1CD (E1418-V2136), which was produced in insect (Sf9) cells, was from a commercial source; purchased Epigentek E12002-1; host or cells: Sf9", "conditions": "read-out: IC50 TET1CD (AlphaScreen)"}},
  "data": [
    {"compound": "CC(C)(C)OC(=O)c1ccc(-n2[nH]cc(-n3ccnn3)c2=O)nc1", "note": "[IOX4]", "values": [
      {"measurement": "EC50", "setting": "TET1CD [1]", "result": 79, "unit": "µM"},
      {"measurement": "IC50", "setting": "TET1CD [2]", "result": 17, "unit": "µM"}
    ]}
  ]
}
